Results reported in PMC9747329 (ACS chemical biology, 2022).

By UniProt entry, the sequences of proteins in these tests, tags left out. Residues count along the entry.
UniProt Q03431, 27-593: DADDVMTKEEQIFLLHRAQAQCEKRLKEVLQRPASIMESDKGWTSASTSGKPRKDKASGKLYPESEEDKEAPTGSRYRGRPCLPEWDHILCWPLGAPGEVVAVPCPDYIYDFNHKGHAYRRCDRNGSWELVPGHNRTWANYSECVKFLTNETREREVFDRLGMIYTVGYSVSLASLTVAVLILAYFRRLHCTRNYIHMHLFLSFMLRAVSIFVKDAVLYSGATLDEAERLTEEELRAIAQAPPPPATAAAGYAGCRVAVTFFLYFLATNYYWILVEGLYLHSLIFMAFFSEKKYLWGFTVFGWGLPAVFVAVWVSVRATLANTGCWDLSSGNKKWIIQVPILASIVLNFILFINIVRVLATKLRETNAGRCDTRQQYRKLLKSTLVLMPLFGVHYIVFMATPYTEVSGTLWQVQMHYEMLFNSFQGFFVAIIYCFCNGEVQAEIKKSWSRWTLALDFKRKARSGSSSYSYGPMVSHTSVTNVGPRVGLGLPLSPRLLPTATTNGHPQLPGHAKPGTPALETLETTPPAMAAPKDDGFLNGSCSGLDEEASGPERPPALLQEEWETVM

Target: nLuc-PTHR1 (human parathyroid hormone receptor-1 with NanoLuc luciferase fused to the N-terminus) (human) (UniProt Q03431)
Assay: FRET or BRET

PTHrP(1-34) (peptide) showed a Kd of 73 nM, a koff of 0.024 s⁻¹ and a kon of 240000 M⁻¹ s⁻¹.
